Reference: patent US20260125649A1, “MEDIUM COMPOSITION AND METHOD FOR CULTURING MESENCHYMAL STEM CELLS” (ACADEMIA SINICA, priority 2018, published 2026)

Target: T1, EGFR (Tyr845) (Homo sapiens, UniProt P00533)
T1 construct: host or cells: human primary bone marrow mesenchymal stem cells (BMMSCs)
Test: EGFR phosphorylation (antibody array, Western blotting)
Type: cell-based
Settings: pretreatment with AG1478
Description: Phospho-EGFR (Tyr845) was detected by Western blotting. […] After treatment, cell cycle progression was investigated by flow cytometry with PI staining. Fraction of cells in each phase (G1, S, G2/M) of the cell cycle was evaluated. Cells that expressed EGFR shRNA or shLuc were treated with EpEX for 18 h. After treatment, cell cycle progression was investigated by flow cytometry with PI staining. Fraction of cells in each phase (G1, S, G2/M) of the cell cycle was evaluated. […] The protein expression of cell cycle regulators (cyclin D1, cyclin D2, cyclin E1) and pluripotency factors (Oct4, Sox2, c-Myc, Lin28) was examined by Western blotting. MSCs expressing EGFR shRNA were stimulated by EpEX. After treatment, the protein expression of cell cycle regulators (cyclin D1, cyclin E1, CDK4 and CDK9) and pluripotency factors (Oct4, in Sox2, c-Myc, and Lin 28) was examined by Western blotting. […] After treatment, the gene expression of pluripotency factors (Oct4, Sox2, c-Myc, Lin28 and EpCAM) was examined by qPCR.
FIG. 8. EpEX and EGF induce the phosphorylation of EGFR and STAT3. MSCs were pretreated with or without an EGFR inhibitor, AG1478, and followed by the treatment with either EGF, EpEX, or co-treated with EGF and EpEX at indicated time. The phosphorylation of EGFR (Tyr845) and STAT3 (Tyr705) were examined by Western blotting with specific antibodies. […]

## COc1cc2ncnc(Nc3cccc(Cl)c3)c2cc1OC [AG1478, reference compound]
  effect on activation of EGFR by either EGF or EpEX: can attenuate
